Ab-14 heavy chain CDR variants: yeast mating affinities

Data: MIT Lincoln Laboratory AlphaSeq set, Li et al. 2023, doi:10.1038/s41467-023-39022-2, as distributed in FLAb.

Target peptide (SARS-CoV-2 spike, HR2 region): PDVDLGDISGINAS

Ab-14 is the parent antibody, in scFv form: VH, then a 15-residue (Gly4Ser)3 linker, then VL. The light chain is unchanged in all variants.
VH: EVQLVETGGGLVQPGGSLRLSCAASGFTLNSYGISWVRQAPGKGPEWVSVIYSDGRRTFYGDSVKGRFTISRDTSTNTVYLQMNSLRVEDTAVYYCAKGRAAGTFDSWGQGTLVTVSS
VL: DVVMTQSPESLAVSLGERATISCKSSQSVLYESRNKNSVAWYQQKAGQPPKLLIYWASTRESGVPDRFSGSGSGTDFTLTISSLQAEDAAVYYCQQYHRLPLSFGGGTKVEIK

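Phage display of a naive human antibody library on the peptide gave the parent. This is the validation round: designs drawn from the data on random variants, tested in the same kind of assay. Several design methods are mixed in this list. AlphaSeq pools MATa yeast showing the antibodies with MATalpha yeast showing the peptide. Mating (16 h, 30 °C) was followed by selection of diploids and sequencing of their barcodes. Scores were corrected for input abundance and mapped to Kd with protein pairs of known affinity run in the same pool. Mating was done six times.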

Variants are written as CDR1, CDR2 and CDR3 of the heavy chain (limits as in the source). Parent: GFTLNSYGIS, VIYSDGRRTFYGDSVK, GRAAGTFDS.
Variants here have more than six changes.
Scale: log10 of Kd in nM, estimated from mating counts; low values are strong binders.
An entry "nd" has no value in the source: the pair was not observed among the diploids in that replicate. This suggests poor binding but is not conclusive.
The authors averaged sequences with at least three values out of six and counted those with two or fewer as poor binders.
As a blank, each scFv also met three strains without target: over all heavy chain designs, 1% of these pairings were detected, typically at 2.08 and seldom below 0.84. For each scFv, signals with the empty controls are counted beside the result.
A sequence measured in both rounds can read differently, since the two assays cover different ranges.

For GFDLNEYGIS | VIYADGVRTAYADNVK | GEVAGTFDM, the assay gave -0.38, -0.61, -0.66, -1.02, -0.42, -0.55 (controls 0 of 18).
For GPNLEEYGIS | VIYADGMRTAYKDSVK | GQVAGIGKF, the assay gave nd, nd, nd, nd, nd, nd (controls 0 of 18).
For GFDLNSYGIS | VIYSDGRMTFYISSVK | GRAAGWFNM, the assay gave nd, nd, nd, nd, nd, nd (controls 0 of 18).
For GFDLNEYGIS | VIYADGRRTFYSDSVK | GNVAGTFDL, the assay gave -0.43, -1.10, -0.60, -0.52, -0.39, -0.08 (controls 0 of 18).
For GFDLNEYGIS | VIYADGMRTAYSDSVK | GENAGTFDA, the assay gave 0.45, -0.05, 0.54, 0.89, 0.18, 0.22 (controls 0 of 18).
For GKSLDEYGIS | VIYADGMRTMYTDSVK | GQLDDGMDL, the assay gave nd, nd, nd, nd, nd, nd (controls 0 of 18).
For GFDLNEYGIS | VIYADGRRTFYTDQVK | GQNAGTFDM, the assay gave 1.35, 0.57, nd, 1.54, 0.57, nd (controls 0 of 18).
For GFDLNEYGIS | VIYADGMRTAYADNVK | GNNAGTFDV, the assay gave -0.20, -0.64, -0.60, -0.41, -0.49, 0.01 (controls 0 of 18).
For GFTLDEYGIS | VIYADGRRTFYADSVK | GGVAGTFDQ, the assay gave -0.57, -0.62, -0.61, -0.71, -0.59, -0.76 (controls 0 of 18).
For GNTLNEYGIS | VIYADGIRKAYKDNFK | GMVTGTFDQ, the assay gave nd, nd, nd, nd, nd, nd (controls 0 of 18).
For GFDLNEYGIS | VIYADGMRTAYADSVK | GNNAGTFDA, the assay gave 0.65, 0.08, 0.80, -0.48, 0.15, 0.39 (controls 0 of 18).
For GFDLNEYGIS | VIYADGVRTFYADSVK | GNLAGTFDQ, the assay gave -0.25, -0.32, -0.57, -0.64, -0.54, -0.77 (controls 1 of 18).
For GFDLNEYGIS | VIYADGVRTAYSDSVK | GNNAGTFDT, the assay gave -0.13, -0.57, -0.31, -0.46, -0.64, -0.64 (controls 0 of 18).
For GFDLDEYGIS | VIYADGQRTAYADSVK | GNEAGTFDI, the assay gave 0.22, 0.32, 0.33, 0.31, 0.17, 0.24 (controls 2 of 18).
For GFDLDEYGIS | VIYADGMRTAYSDSVK | GNQAGTFDM, the assay gave -0.24, -0.27, -0.94, 0.15, -0.48, -0.62 (controls 0 of 18).
For GFDLNEYGIS | VIYADGMRTHYTDSVK | GNQAGTFDS, the assay gave 0.05, -0.09, 0.23, 0.02, 0.11, 0.32 (controls 0 of 18).
For GFDLNEYGIS | VIYADGVRRTYQDAVK | VDQSGVIDV, the assay gave nd, nd, nd, nd, nd, 2.10 (controls 1 of 18).
For GFDLNEYGIS | VIYADGQRTAYADSVK | GEVAGTFDL, the assay gave -0.19, -0.22, -0.50, 0.01, -0.42, -0.46 (controls 0 of 18).
For GFDLNEYGIS | VIYADGRRTFYTDNVK | GQNAGTFDL, the assay gave -0.84, -0.57, -0.64, -0.68, -0.85, -0.63 (controls 0 of 18).
For GFDLNEYGIS | VIYADGMRSYYADSVK | GENAGTFDL, the assay gave -0.01, -0.03, 0.15, -0.05, -0.03, 0.04 (controls 0 of 18).
For GFDLNEYGIS | VIYADGMRTAYIDSVK | GETAGTFDI, the assay gave -0.39, -0.28, -0.77, -0.84, -1.07, -0.26 (controls 1 of 18).
For GFDLNEYGIS | VIYADGVRTAYTDSVK | GENAGTFDL, the assay gave -0.05, -0.18, -0.53, -0.53, -0.35, -0.35 (controls 1 of 18).
For GFDLNEYGIS | VIYADGSRTAYVDSVK | GQVAGTFDV, the assay gave -0.91, -0.74, -0.77, -0.86, -0.79, -0.84 (controls 0 of 18).
For GFTLAQYGIS | VIYSDGRRTFYSPSVK | IVAAGFFMS, the assay gave nd, nd, nd, nd, nd, nd (controls 0 of 18).
For GFDLDEQGIS | VIYADGVRCSYADKVK | GAGSGVIDM, the assay gave nd, nd, nd, nd, nd, nd (controls 0 of 18).
For GFDLDKYGIS | VIYADGRRKFYQNQFK | GGQAGTFVI, the assay gave nd, nd, nd, nd, nd, nd (controls 0 of 18).
For GFNLDEYGIS | VIYADGRRTFYSNSVK | GEAAGTFDV, the assay gave -0.49, -0.68, -0.54, -0.83, -0.73, -0.38 (controls 0 of 18).
For GFDLDEYGIS | VIYADGVRTAYVDSVK | GNVAGTFDV, the assay gave -0.66, -0.75, -0.82, -0.74, -0.73, -0.60 (controls 0 of 18).
For GFNLDEYGIS | VIYADGRRTAYQDSVK | GEVAGTFDV, the assay gave -0.34, -0.46, 0.05, -0.86, -0.50, -0.23 (controls 0 of 18).
For GFQIEEYGIS | VIYADGDRKNYDAKVK | GQIAGTFDM, the assay gave 0.08, -0.12, -0.16, 0.48, 0.16, 0.81 (controls 0 of 18).
For GFNLEEYGIS | VIYADGMRTAYTDKVK | GGLDDQEGY, the assay gave nd, nd, nd, nd, nd, nd (controls 0 of 18).
For GFDLNEYGIS | VIYADGMRSFYADSVK | GQNAGTFDV, the assay gave -0.27, -0.46, -0.58, -0.82, -0.38, -0.54 (controls 0 of 18).
For GFDLNEYGIS | VIYADGIRTAYADSVK | GETAGTFDQ, the assay gave 0.22, 0.29, -0.08, -0.22, -0.11, -0.05 (controls 1 of 18).
For GFSLEEYGIS | VIYADGSRTSYQESVK | GLYIGMLDM, the assay gave nd, nd, nd, nd, nd, nd (controls 1 of 18).
For GFDLNEYGVS | VIYADGVRSAYTSSVK | GVGNLDIMI, the assay gave nd, nd, nd, nd, nd, nd (controls 0 of 18).
For GFDLNEYGIS | VIYADGRRTAYSDSVK | GENAGTFDF, the assay gave 0.01, -0.44, -0.33, -0.50, -0.12, -0.28 (controls 0 of 18).
For GFDLNEYGVS | VIYADGQRTQYSDKVK | GSESASITN, the assay gave nd, nd, nd, nd, nd, nd (controls 1 of 18).
For GFDLDEYGIS | VIYADGRRTFYADSVK | GTNAGTFDK, the assay gave -0.26, -0.46, -0.64, -0.49, -0.71, -0.43 (controls 0 of 18).
For GKSLDEYGIS | VIYADGMRAEYQNSVK | GTTGGDVFV, the assay gave nd, nd, nd, nd, nd, nd (controls 0 of 18).
For GFDLNEYGIS | VIYADGRRQAVVQSVK | GKNNVVDSV, the assay gave nd, nd, nd, nd, nd, nd (controls 1 of 18).
For GFDLNEYGIS | VIYADGRRTFYTDSVK | GANAGTFDA, the assay gave -0.36, -0.80, -0.33, -0.96, -0.81, -0.37 (controls 0 of 18).
For FNIGEDYGIS | VIYADGLRTAYENSVK | GEVAGTFDS, the assay gave 1.18, 0.91, 1.47, 1.31, 1.51, 1.67 (controls 1 of 18).
For GFWLDEYGIS | VIYADGKRVAYINSVK | GQFTYNNDV, the assay gave nd, nd, nd, nd, nd, nd (controls 0 of 18).
For GFDLNEYGIS | VIYADGSRTAYADSVK | GTNAGTFDQ, the assay gave -0.04, 0.02, -0.58, -0.65, -0.43, -0.07 (controls 0 of 18).
For GFDLNEYGIS | VIYADGRRTAYVDSVK | GVNAGTFDV, the assay gave -0.19, -0.11, -0.47, -0.77, -0.62, -0.38 (controls 0 of 18).
For GFDLEEYGIS | VIYADGRRVAYADRVK | GIDVYGKVM, the assay gave nd, nd, nd, nd, nd, nd (controls 0 of 18).